# Apparent affinities of Ab-14 variants for a coronavirus HR2 peptide

Target peptide (SARS-CoV-2 spike, HR2 region): PDVDLGDISGINAS

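This is the validation round: designs drawn from the data on random variants, tested in the same kind of assay. Several design methods are mixed in this list. In AlphaSeq, yeast of one mating type display the scFv and yeast of the other type display the target. After mating in shaken culture at 30 °C for 16 h, diploids were selected and their barcode pairs sequenced. The ratio of observed to expected reads was calibrated, replicate by replicate, on BCL2-family standards whose Kd was known from biolayer interferometry. There are six technical replicates.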

Each scFv is VH, three GGGGS repeats, VL, as in the parent Ab-14, and differs from it in the CDRs of the light chain only.
VH: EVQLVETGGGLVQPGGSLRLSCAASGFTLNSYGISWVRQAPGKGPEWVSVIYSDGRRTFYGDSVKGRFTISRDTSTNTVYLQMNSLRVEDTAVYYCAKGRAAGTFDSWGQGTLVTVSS
VL: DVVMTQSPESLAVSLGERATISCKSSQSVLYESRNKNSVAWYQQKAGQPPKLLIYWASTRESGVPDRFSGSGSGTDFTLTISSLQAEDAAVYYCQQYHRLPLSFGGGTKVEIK

The parent's light chain CDRs are KSSQSVLYESRNKNSVA, WASTRES, QQYHRLPLS; each variant's own CDRs replace them letter for letter.
Variants here have more than six changes.
Kd is apparent (estimated from mating counts) and averaged on the log scale over replicates with a signal. Smaller is tighter.
The authors averaged sequences with at least three values out of six and counted those with two or fewer as poor binders.
Values of this round are not directly comparable with the first-round values of the same sequences.
Nonspecific signal, from three strains lacking the peptide, appeared in 4% of pairings of all light chain designs, centred on 430 nM (5% of these signals below 38 nM); values are not corrected for it. Also given: how often the same scFv was detected with the empty control strains.
The parent sequence was in this pool as ten entries: three were never detected, three once, and four in most replicates, with averages from 2.2 nM to 240 nM.

With KLWESVLGESRMQNAVA, SASTRES, QQYHRLPLS the result was 2.0 nM (6 of 6 replicates; controls 1 of 18).
With KMSQEVPLESRNDNSVA, MASTRMM, QQYHRLPLS the result was 8.2 nM (6 of 6 replicates; controls 4 of 18).
With IITQSVMQESRNKRNVA, NTSERES, QQYDRLPLI the result was 11 nM (6 of 6 replicates; controls 1 of 18).
With QIYQAMHTLSQMKDNVA, DVNERGT, QQYFRLPLS the result was 3.4 nM (6 of 6 replicates; controls 0 of 18).
With KLRVATMLESHNKNSIA, DLSTRGN, QQYHRLPLS the result was 3.3 nM (6 of 6 replicates; controls 2 of 18).
With TISASANYESTNKNSVA, ELTTRGS, QQYERLPLS the result was 410 nM (2 of 6 replicates; controls 0 of 18).
With KLSQVTEWEMHNKDNVA, DLTTRGA, QDYHRLPLS the result was 1.7 nM (6 of 6 replicates; controls 0 of 18).
With MISQLYNMGSFAINSVA, QASMRNA, QQYDRLPLI the result was 39 nM (6 of 6 replicates; controls 2 of 18).
With TISQLYNMGQFAINSVA, QASERCN, QQYDRLPLT the result was 4.1 nM (6 of 6 replicates; controls 1 of 18).
With KLEDSNRWNYRGTNAVA, QASTRAA, QQYQRLPFL the result was 1.2 nM (6 of 6 replicates; controls 0 of 18).
With SISMLLNFESKKGSNVA, QMETRVN, QQYDRLPLS the result was 2.2 nM (6 of 6 replicates; controls 1 of 18).
With KIYMMTGYQSRNADSIA, DNSTRGR, QQYHRLPLS the result was 46 nM (5 of 6 replicates; controls 0 of 18).
With AAQQSELYEDRNQNSVA, NASQRLS, QQYHRLPLS the result was 2.6 nM (6 of 6 replicates; controls 0 of 18).
With KISQLVNFLGKEKNSVA, QMSTRES, QQYDRLPLS the result was 110 nM (6 of 6 replicates; controls 0 of 18).
With KIELDLTRYNAGYAAIA, HETMKAQ, QQYSRLPLV the result was 4.0 nM (6 of 6 replicates; controls 0 of 18).
With TIGPMLMTESHNRNNVA, GMQTRER, QQYHRLPLS the result was 1.7 nM (6 of 6 replicates; controls 0 of 18).
With HIQEVDNQVENQNGNVA, DASEYLA, QQYFQLPIS the result was 110 nM (6 of 6 replicates; controls 2 of 18).
With KFMTSGEYQMHEQNNIA, QGNIKTV, QQYFRLPIS the result was 4.1 nM (6 of 6 replicates; controls 0 of 18).
With HFSQVTMYGQWNKNSVA, QTSTREE, QQYDRLPLS the result was 84 nM (5 of 6 replicates; controls 1 of 18).
With KLYQSMGYLSHNKNSIA, DMSRREN, QQYHRLPLS the result was 48 nM (6 of 6 replicates; controls 0 of 18).
With KLYQSMGYLSHNKDSIA, DMSRREN, QQYHRLPLS the result was 660 pM (6 of 6 replicates; controls 2 of 18).
With KMTKAQYGAGSHQQNIA, ESNKISE, QSYYRLPLS the result was 360 nM (3 of 6 replicates; controls 0 of 18).
With HITYGMQVKGRHMESIA, QAEERAK, QQYDRLPLA the result was 11 nM (6 of 6 replicates; controls 1 of 18).
With KFSQSMLYESRVKNNVA, NASQRES, QMYHRLPLS the result was 33 nM (6 of 6 replicates; controls 3 of 18).
With KLNHLSFVHDREKNNVA, DLNVKAS, QQYDRLPLV the result was 2.4 nM (6 of 6 replicates; controls 0 of 18).
With TISQMTSWMSNKKNNVA, EVTTREA, QQYDRLPLM the result was 660 nM (3 of 6 replicates; controls 0 of 18).
With NLNVSEDQWPSSKNAIA, QTTCRNL, QQYVHLPLS the result was 5.3 nM (6 of 6 replicates; controls 1 of 18).
With QVAAIHEHESDQNQAMA, EASMRDA, QQYERLPLS the result was 6.2 nM (6 of 6 replicates; controls 3 of 18).
With QLYEMMYELSGKTHSVA, DNSTRGE, QQYFRLPLD the result was 130 nM (6 of 6 replicates; controls 0 of 18).
With KMMLSLGESKQSERNVA, NMRVSVA, QQYDHLPLT the result was 17 nM (6 of 6 replicates; controls 0 of 18).
With QFSQSDPDESRNKNSVA, YASTRES, QQYCRLPLS the result was 2.4 nM (6 of 6 replicates; controls 1 of 18).
With KISQSVWMESRNVNNVA, NASTRED, QQYHRLELS the result was 170 nM (3 of 6 replicates; controls 2 of 18).
With KIGATLNQMMHLKNNVA, DLVTREN, QQYHRLPLS the result was 18 nM (6 of 6 replicates; controls 0 of 18).
With TLYGLSLSMSKNKNNVA, EMTTREK, QQYDRLPLI the result was 3.3 nM (6 of 6 replicates; controls 3 of 18).
With QVQAFNEHLKDQTQAMA, NATMRDQ, QQYERLPLS the result was 3.0 nM (6 of 6 replicates; controls 0 of 18).
With KLMQGVDMESRNKNSVA, NASMRED, QQYHRLPLS the result was 2.3 nM (6 of 6 replicates; controls 1 of 18).
With KLRLHNLMFYENENSIA, DVSNRAY, QQYYHLPLN the result was 45 nM (6 of 6 replicates; controls 0 of 18).
With KLSDVTEYESRNKNNVA, DLSTRGS, QDYHRLPLS the result was 510 pM (6 of 6 replicates; controls 1 of 18).
With KFYDQDPELNYMDNSIA, GMTVSVE, QQYWRLPLT the result was 24 nM (6 of 6 replicates; controls 1 of 18).
With KITGMWTFEMHNRNNIA, EESTRED, QSYHRLPLS the result was 3.6 nM (6 of 6 replicates; controls 0 of 18).

The opening 6 entries, copied out:

CDR-L1,CDR-L2,CDR-L3,Kd (apparent),seen in,control signals
KLWESVLGESRMQNAVA,SASTRES,QQYHRLPLS,2.0 nM,6/6,1/18
KMSQEVPLESRNDNSVA,MASTRMM,QQYHRLPLS,8.2 nM,6/6,4/18
IITQSVMQESRNKRNVA,NTSERES,QQYDRLPLI,11 nM,6/6,1/18
QIYQAMHTLSQMKDNVA,DVNERGT,QQYFRLPLS,3.4 nM,6/6,0/18
KLRVATMLESHNKNSIA,DLSTRGN,QQYHRLPLS,3.3 nM,6/6,2/18
TISASANYESTNKNSVA,ELTTRGS,QQYERLPLS,410 nM,2/6,0/18

From the AlphaSeq antibody data of Li et al. 2023 (doi:10.1038/s41467-023-39022-2), copy in the FLAb collection.